From ChEMBL document CHEMBL1125677, “New derivatives of kanamycin B obtained by combined modifications in positions 1 and 6". Synthesis, microbiological properties, and in vitro and computer-aided toxicological evaluation” (J Med Chem, 1991)

Test system: Serratia marcescens

## GENTAMICIN
  MIC: 0.5 µg/mL
